# Measured affinities in a library of Ab-91 heavy chain variants

Reference: Engelhart et al. 2022, doi:10.1038/s41597-022-01779-4. File: FLAb, binding data.

The target is the same throughout: PDVDLGDISGINAS, from the HR2 region of SARS-CoV-2 spike.

Parent scFv Ab-91: VL joined to VH by the linker GGGGSGGGGSGGGGS. Changes lie in the heavy chain CDRs alone.
VL: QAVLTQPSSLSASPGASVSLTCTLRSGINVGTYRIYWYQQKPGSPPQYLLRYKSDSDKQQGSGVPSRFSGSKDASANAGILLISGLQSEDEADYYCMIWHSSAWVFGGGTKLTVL
VH: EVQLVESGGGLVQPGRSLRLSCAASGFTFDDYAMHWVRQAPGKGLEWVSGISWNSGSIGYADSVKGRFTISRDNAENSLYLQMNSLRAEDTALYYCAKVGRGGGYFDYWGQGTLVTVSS

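Phage display of a naive human antibody library on the peptide gave the parent. The library (AAYL51) carries one to three amino acid substitutions per variant, with no insertions or deletions. The scFvs were displayed on barcoded MATa yeast, the peptide on MATalpha yeast. Pairs that bind mate more often; barcode pairs of the diploids are counted by sequencing. The ratio of observed to expected reads was calibrated, replicate by replicate, on BCL2-family standards whose Kd was known from biolayer interferometry. Each pool was mated in three replicate cultures.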

Positions count from residue 1 of the parent VH; S52W puts W in place of S.
Values are log10 of the apparent Kd in nM; lower means stronger binding.
Where no diploid with the target was found in that replicate, the entry reads "ND": below detection, most likely a poor binder, though not proof of it.

changes,log10 Kd (nM) by replicate
S52W+K65M+R101K,ND / ND / ND
S52I+V99H,5.65 / 3.87 / ND
T28H+D30R+S57A,1.38 / 1.08 / 0.18
A61F+F106C,3.36 / 3.77 / 3.74
N54P+D62M+R101C,ND / ND / ND
F27M+D62R+S63A,ND / ND / ND
N54A+G56Q+G100A,ND / ND / ND
S52M+S57M+I58Y,ND / ND / ND
G26A+Y32M+Y60C,5.18 / 4.94 / ND
D30C+D62N+D107M,5.73 / 4.86 / 3.99
G26A+G104C+Y108Q,ND / ND / ND
F27Y+N54Y+D62V,ND / 3.53 / ND
M34H+W53Q+K65S,ND / ND / ND
Y32N+A61R,2.13 / 3.13 / 3.25
A33L+V99N,0.93 / 1.11 / 0.74
A33Q+S52L,ND / ND / ND
D31H+I51D+G100P,3.80 / 5.47 / ND
G100F+G102H+D107S,ND / ND / ND
A33L+G103D+G104R,5.82 / 4.46 / 4.73
D31Y+A61K+S63N,ND / ND / ND
D30W+N54D+Y60G,ND / ND / ND
M34Y+R101M+Y105G,ND / ND / ND
G100C+G104T+D107P,ND / ND / ND
F29N+V64K+G102C,4.90 / ND / ND
D31W+S52K+R101Q,5.53 / ND / ND
A33Q+Y105E+F106T,3.20 / 4.88 / ND
F29K+D30F+S52Q,ND / ND / ND
F29K+I58Q+Y108T,3.36 / ND / 4.85
S57A+G102R+Y108W,1.76 / 1.95 / 2.07
S55D+G56E+G100L,4.78 / ND / 4.10
Y32D+G56I+I58L,5.10 / 4.31 / ND
D31V+M34P+I51D,ND / 3.58 / ND
M34L+S52F+G103Q,ND / ND / ND
F29V+Y60V+G104F,4.67 / 3.44 / ND
D30S+S52K+D107A,4.06 / 5.69 / 5.42
A33M+S57T,4.80 / ND / ND
T28F+S55W+G102C,ND / ND / ND
F27R+S52M+S55K,ND / ND / ND
D31K+G50P+Y108C,ND / ND / ND
N54S+A61V+V64Q,5.90 / 6.07 / 5.01
W53T+G100R+F106P,ND / ND / ND

From the list, the first 3 with no signal in any replicate:

changes,log10 Kd (nM) by replicate
S52W+K65M+R101K,ND / ND / ND
N54P+D62M+R101C,ND / ND / ND
F27M+D62R+S63A,ND / ND / ND

Parent in this assay: reference entry 1.86, copy in this library 0.88.
Background: pairings of library AAYL51 with three empty control strains gave a value in 21% of cases (median 4.54, 5th percentile 3.26). Values in that range, when seen in few replicates, are hard to tell from nonspecific mating.